Measurements from PubChem BioAssay AID746 (The Scripps Research Institute Molecular Screening Center, 2007).
This is a selection; strong and weak results do not stand in their true shares. Active and inactive are the calls of the source. Rule as the data show it: active = inhibition above about 17%; inactive = the rest.

Chains of the proteins cited; added tags and fusions are not shown. Lines headed by an entry give the natural chain unless they say otherwise; changes in a name come on top.
UniProt P53779: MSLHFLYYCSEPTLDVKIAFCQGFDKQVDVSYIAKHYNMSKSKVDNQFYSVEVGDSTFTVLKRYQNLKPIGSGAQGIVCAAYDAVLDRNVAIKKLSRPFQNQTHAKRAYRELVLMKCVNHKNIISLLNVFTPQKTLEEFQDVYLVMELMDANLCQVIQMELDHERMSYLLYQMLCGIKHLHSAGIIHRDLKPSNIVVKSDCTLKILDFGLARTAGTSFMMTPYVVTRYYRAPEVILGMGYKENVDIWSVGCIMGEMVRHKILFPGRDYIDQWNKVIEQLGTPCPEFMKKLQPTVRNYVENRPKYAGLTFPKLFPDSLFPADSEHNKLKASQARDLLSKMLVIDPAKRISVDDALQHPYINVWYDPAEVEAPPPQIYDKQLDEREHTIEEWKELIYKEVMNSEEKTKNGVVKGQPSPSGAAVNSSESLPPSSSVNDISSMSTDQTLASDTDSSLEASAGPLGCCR

The compounds below were run against Mitogen-activated protein kinase 10 (Homo sapiens) (UniProt P53779) (assay: JNK3 kinase activity inhibitors, primary screen, biochemical, human, purified enzyme (AID 746;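 also: 0% = DMSO and 100% = reference inhibitor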)). Conditions: HTS, at 8 µM, stronger effect = higher value.
With `Cc1cccc(OCC(=O)OC2CN3CCC2CC3)c1` (centres undefined) the inhibition was inactive: -2.83%.
For `CCOP1(=S)c2c(C)nn(CCC#N)c2N=C(c2ccc(F)cc2)N1C` (centres undefined), the inhibition was inactive: -4.12%.
For `CCOP1(=S)c2c(C)nn(CCC#N)c2N=C(c2ccccc2F)N1C` (centres undefined), the inhibition was inactive: -5.81%.
With `O=P(Nc1nccs1)(c1ccccc1)c1nc2ccccc2s1` (centres undefined) the inhibition was inactive: 2.23%.
With `O=P1(Nc2ncccn2)COc2ccccc2OC1` the inhibition was inactive: -7.25%.
With `O=P1(Nc2ccc(Br)cn2)COc2ccccc2OC1` the inhibition was inactive: 1.9%.
For `Cc1ccc(OCC(=O)OC2CN3CCC2CC3)cc1` (centres undefined), the inhibition was inactive: -5.46%.
For `Cc1nn(-c2ccccc2)c2c1P(=O)(N1CCOCC1)N(C)C(c1ccccc1)=N2` (centres undefined), the inhibition was inactive: 3.91%.
For `O=P1(Nc2ccccn2)COc2ccccc2OC1`, the inhibition was inactive: 3.93%.
With `Clc1n[nH]nc1-c1nn[nH][15n]1` the inhibition was inactive: -7.18%.
In the case of `COP1(=S)c2c(C)nn(CCC#N)c2N=C(c2ccc(F)cc2)N1C` (centres undefined), the inhibition is reported as inactive: -1.05%.
With `O=C(COc1ccccc1)OC1CN2CCC1CC2` (centres undefined) the inhibition was inactive: -4.44%.
In the case of `O=C(OC1CN2CCC1CC2)C12CC3CC(CC(C3)C1)C2` (centres undefined), the inhibition is reported as inactive: -4.33%.
For `Cc1c2non([O-])c-2c(C)[n+](=O)[n+]1[O-]`, the inhibition was inactive: 2.28%.
With `CCc1nc2c(n1)c1c(non1O)c1c2no[n+]1[O-]` the inhibition was inactive: -2.71%.
`O=P(Nc1nccs1)(c1ccccc1)c1ccccc1` was tested, and the inhibition was inactive: 5.75%.
With `c1nnnn1CCn1cnnn1` the inhibition was inactive: 3.73%.
In the case of `O=C(OC1CN2CCC1CC2)c1cccc(Cl)c1` (centres undefined), the inhibition is reported as inactive: -4.93%.
With `O=P1(Nc2nc3ccc(Cl)cc3s2)COc2ccccc2O1` (centres undefined) the inhibition was inactive: 9.71%.
